For 8 compounds, composite z-score, z-score and composite Z-score results are on record in PubChem BioAssay.

Amino acid sequences for entries named in this document (tags omitted). A change or cut given only in a name is not applied to a line headed by its entry.
UniProt O15520: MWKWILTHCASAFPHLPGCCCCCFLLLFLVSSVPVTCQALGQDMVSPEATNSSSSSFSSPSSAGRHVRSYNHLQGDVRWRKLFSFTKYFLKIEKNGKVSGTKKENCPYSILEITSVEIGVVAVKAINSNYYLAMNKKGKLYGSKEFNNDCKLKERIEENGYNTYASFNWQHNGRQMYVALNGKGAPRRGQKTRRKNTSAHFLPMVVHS
UniProt O95633: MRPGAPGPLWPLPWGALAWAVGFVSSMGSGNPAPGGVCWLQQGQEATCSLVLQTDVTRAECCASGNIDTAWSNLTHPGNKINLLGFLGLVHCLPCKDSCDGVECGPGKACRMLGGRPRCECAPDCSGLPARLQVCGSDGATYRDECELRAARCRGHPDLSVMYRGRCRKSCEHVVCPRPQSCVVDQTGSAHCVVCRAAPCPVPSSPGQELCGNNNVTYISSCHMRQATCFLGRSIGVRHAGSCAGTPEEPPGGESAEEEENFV
UniProt O94907: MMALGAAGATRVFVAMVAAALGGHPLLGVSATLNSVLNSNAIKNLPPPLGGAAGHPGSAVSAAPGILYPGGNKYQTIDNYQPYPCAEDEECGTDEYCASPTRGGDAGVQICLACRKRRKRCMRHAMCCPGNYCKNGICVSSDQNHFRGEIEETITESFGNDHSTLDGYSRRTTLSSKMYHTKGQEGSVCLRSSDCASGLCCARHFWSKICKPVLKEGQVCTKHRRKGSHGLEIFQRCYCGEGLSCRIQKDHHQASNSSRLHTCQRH
UniProt O00292: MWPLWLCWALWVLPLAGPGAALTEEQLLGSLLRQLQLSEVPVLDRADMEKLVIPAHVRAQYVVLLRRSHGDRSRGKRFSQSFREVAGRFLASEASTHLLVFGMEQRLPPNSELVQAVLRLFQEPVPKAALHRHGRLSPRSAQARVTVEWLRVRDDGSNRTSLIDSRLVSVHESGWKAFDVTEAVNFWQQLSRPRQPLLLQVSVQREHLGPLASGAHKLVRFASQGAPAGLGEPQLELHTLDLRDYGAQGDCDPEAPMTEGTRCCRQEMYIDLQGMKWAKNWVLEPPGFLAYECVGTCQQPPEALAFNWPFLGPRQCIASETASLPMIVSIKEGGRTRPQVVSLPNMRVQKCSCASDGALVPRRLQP
UniProt Q5JTV8: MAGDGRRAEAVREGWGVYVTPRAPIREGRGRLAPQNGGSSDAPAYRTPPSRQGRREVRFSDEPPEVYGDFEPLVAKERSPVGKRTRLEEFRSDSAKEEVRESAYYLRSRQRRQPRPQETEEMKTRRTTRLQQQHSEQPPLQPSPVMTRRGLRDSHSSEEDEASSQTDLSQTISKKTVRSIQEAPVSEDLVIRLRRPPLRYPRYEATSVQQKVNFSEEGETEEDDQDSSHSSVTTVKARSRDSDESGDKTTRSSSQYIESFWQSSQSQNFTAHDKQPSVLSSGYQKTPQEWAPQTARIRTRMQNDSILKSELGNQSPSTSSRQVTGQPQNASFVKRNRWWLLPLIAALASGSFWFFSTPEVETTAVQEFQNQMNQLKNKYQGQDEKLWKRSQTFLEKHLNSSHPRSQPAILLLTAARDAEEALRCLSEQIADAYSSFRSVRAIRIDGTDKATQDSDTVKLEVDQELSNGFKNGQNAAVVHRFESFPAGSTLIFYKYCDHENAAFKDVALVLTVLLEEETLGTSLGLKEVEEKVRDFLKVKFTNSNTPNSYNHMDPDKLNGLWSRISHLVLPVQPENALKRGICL
UniProt P02769, whole entry, looked up: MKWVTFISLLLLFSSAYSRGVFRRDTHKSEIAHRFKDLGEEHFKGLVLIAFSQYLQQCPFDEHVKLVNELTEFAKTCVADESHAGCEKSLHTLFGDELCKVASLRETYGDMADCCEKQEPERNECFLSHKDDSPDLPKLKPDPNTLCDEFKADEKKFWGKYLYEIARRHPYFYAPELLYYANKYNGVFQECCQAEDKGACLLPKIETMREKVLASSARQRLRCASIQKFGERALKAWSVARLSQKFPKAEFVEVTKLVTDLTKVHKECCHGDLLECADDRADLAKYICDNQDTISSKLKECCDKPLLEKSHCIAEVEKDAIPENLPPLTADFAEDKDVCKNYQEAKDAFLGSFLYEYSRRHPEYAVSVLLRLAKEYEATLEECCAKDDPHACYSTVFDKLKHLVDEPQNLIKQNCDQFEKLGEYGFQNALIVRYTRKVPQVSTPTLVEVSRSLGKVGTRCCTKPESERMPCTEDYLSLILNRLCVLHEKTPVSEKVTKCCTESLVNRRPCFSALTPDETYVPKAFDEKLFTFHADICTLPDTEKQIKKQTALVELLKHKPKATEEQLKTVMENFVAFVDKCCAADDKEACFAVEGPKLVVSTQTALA

Experiment [1] concerns the target Fibroblast growth factor 10 (Homo sapiens) (UniProt O15520). In words: FGF10 binders on small-molecule microarrays, primary screen, biochemical, small-molecule microarray, 635 nm fluorescence (AID 1102). To be noted: FGF10 binding, fluorescence 635 nm, higher = more signal.
Experiment [2] deals with glycogen synthase kinase-3 (GSK3A per assay name; protocol says GSK3B). In words: GSK3 binders on small-molecule microarrays, primary screen, biochemical, small-molecule microarray, 635 nm fluorescence, GSK3A (AID 1103). Note: the record names both GSK3A and GSK3B. As to conditions: small-molecule microarray binding, fluorescence 635 nm; higher = more signal.
The target of experiment [3] is Epidermal growth factor receptor (Homo sapiens) (UniProt P00533). In words: EGFR binders on small-molecule microarrays, primary screen, biochemical, small-molecule microarray, 635 nm fluorescence (AID 1104).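 Note: score merges 667 nm emission intensity with spot signal to noise over triplicate slides.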 To be noted: EGFR binding, higher = more signal.
Experiment [4] has as its target Follistatin-related protein 3 (Homo sapiens) (UniProt O95633). Kind of experiment: FSTL3 binders on small-molecule microarrays, primary screen, biochemical, small-molecule microarray, 635 nm fluorescence (AID 1105).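 Note: score merges emission near 667 nm and signal to noise per printed spot across three slides.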 As to conditions: FSTL3 binding, higher = more signal.
Experiment [5] has as its target Dickkopf-related protein 1 (Homo sapiens) (UniProt O94907). Kind of experiment: DKK1 binders on small-molecule microarrays, primary screen, biochemical, small-molecule microarray, 635 nm fluorescence scan (AID 1106).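 Note: score merges emission near 667 nm with signal to noise over three replicate slides.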 To be noted: DKK1 binding, higher = more signal.
The subject of experiment [6] is Inhibin beta A chain (activin A). In words: INHBA (activin A) binders on microarrays, primary screen, biochemical, small-molecule microarray, 635 nm fluorescence scan (AID 1107).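 Note: mouse activin A protein probed at 4.33 µg/mL on printed slides; score merges bound-protein fluorescence near 667 nm with spot signal-to-noise.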 To be noted: small-molecule microarray binding, higher = more signal.
Experiment [7] is described as follows: modulators of HCV replicon luciferase signal, primary screen, HCV replication inhibitor project, Huh7 cells, luciferase reporter (AID 1109).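 Note: huh7 hepatoma cells harbouring a luciferase neomycin HCV replicon reporter; luciferase luminescence as measure of HCV replicon replication; test concentration not given here.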 As to conditions: 48 h, higher = more signal. In general terms: In antiviral work, replicon cells carry a viral genome segment that copies itself.
Experiment [8] has as its target Left-right determination factor 2 (Homo sapiens) (UniProt O00292). Kind of experiment: LEFTY2 binders on small-molecule microarrays, primary screen, biochemical, small-molecule microarray, 635 nm fluorescence scan (AID 1110). To be noted: LEFTY2 binding, higher = more signal.
Experiment [9] deals with Calmodulin-1 (Homo sapiens) (UniProt P0DP23). Kind of experiment: CALM1 binders on microarrays, EGTA buffer, profiling panel, biochemical, small-molecule microarray, Cy5-labelled CALM1 (AID 1111).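 Note: labelled calmodulin applied in Tris saline Tween buffer holding calcium plus EGTA and DTT.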 To be noted: Cy5-CALM1 binding fluorescence, higher = more signal.
The target is the same in experiment [10]. In words: calcium-bound CALM1 binders on microarrays, profiling panel, artefact control for SMM control-protein annotation, biochemical, small-molecule microarray, Cy5-labelled CALM1, plus calcium (AID 1112).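 Note: score merges spot fluorescence with signal to noise from triplicate slides.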 To be noted: Cy5-CALM1 binding fluorescence, higher = more signal.
Experiment [11] in a line: small-molecule microarray binders of probe aWnt5a, primary screen, biochemical, biotinylated probe, 635/667 nm fluorescence (AID 1113).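 Note: score merges 667 nm fluorescence intensity with signal-to-noise per printed feature.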 To be noted: higher = more signal.
Experiment [12] can be described thus: small-molecule microarray binders of probe aShh, primary screen, biochemical, biotinylated probe, 635/667 nm fluorescence (AID 1114).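 Note: probe is biotin-labelled aShh protein from a stem cell growth factor screen; measures binding of labelled protein to compounds printed on the slide; score merges feature fluorescence at 667 nm with signal-to-noise.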 As to conditions: higher = more signal.
Experiment [13] is described as follows: small-molecule microarray binders of probe aNog, primary screen, biochemical, biotinylated probe, 635/667 nm fluorescence (AID 1115).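 Note: probe is biotinylated aNog protein used at 0.15 µg/mL for 1 h at 4 C; z-score combines 667 nm fluorescence of each spot with its signal to noise.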 To be noted: higher = more signal.
Experiment [14] addresses Torsin-1A-interacting protein 1 (Homo sapiens) (UniProt Q5JTV8). In words: LAP1 binders from COS7 cell lysate, primary screen, small-molecule microarray, 635/667 nm fluorescence (AID 1116). As to conditions: COS7-hLAP1 lysate binding, 635 nm fluorescence, higher = more signal.
For experiment [15], the target named is Albumin (Bos taurus) (UniProt P02769). Kind of experiment: bovine serum albumin binders on microarray, profiling panel, artefact control for SMM control protein annotation, biochemical, small-molecule microarray, Alexa647 label, 635/667 nm fluorescence (AID 1118).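 Note: score merges 667 nm emission intensity and signal-to-noise per printed compound spot.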 As to conditions: BSA-A647 binding, fluorescence 635 nm, higher = more signal.
A short description of experiment [16]: small-molecule microarray binders of probe aXIP, primary screen, biochemical, NeuroSMM set, 635/667 nm fluorescence (AID 1119).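 Note: probe is the protein aXip251-270 applied at 1 µg/mL to compound-printed slides; binding of probe to printed compounds measured as 667 nm fluorescence plus signal to noise.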 To be noted: higher = more signal, called active from +8 up or from −8 down.
The nature of experiment [17]: small-molecule binders of probe aNOTCH3, primary screen, biochemical, small-molecule microarray, 635/667 nm fluorescence (AID 1120).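 Note: probe is a biotin-tagged antibody raised against NOTCH3 rather than NOTCH3 protein; score merges spot fluorescence near 667 nm with spot signal to noise.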 As to conditions: higher = more signal.
Experiment [18] can be described thus: small-molecule binders of probe aNOTCH2, primary screen, biochemical, small-molecule microarray, 635/667 nm fluorescence (AID 1121).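 Note: score merges feature fluorescence read at 667 nm with its signal to noise.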 As to conditions: higher = more signal.
For experiment [19], the target named is Carbonic anhydrase 2 (Homo sapiens) (UniProt P00918). In words: CAII small-molecule binders, profiling panel, biochemical, small-molecule microarray, Alexa647-labelled CAII (AID 1122). As to conditions: CAII-A647 binding fluorescence, higher = more signal.
A short description of experiment [20]: COS7 lysate on small-molecule microarray, probe aHis, 635 nm (AID 1123).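 Note: z-score combines 667nm fluorescence intensity with signal-to-noise per printed compound spot.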 As to conditions: COS7 cell lysate, fluorescence, higher = more signal.

The entries are a selection whose mix differs from that of the whole data set. Activity calls are given as the source filed them.

On to `CN1/C(=N\P(=O)(Oc2ccccc2)Oc2ccccc2)CC(CCCO)=CC1C1CC1` (stereo not given), for which the composite z-score is 0.002 in experiment [1]; 0.0444 in experiment [2]; -0.498 in experiment [3]; 0.336 in [4]; -0.425 in [5]; 0.883 in experiment [6]. For the same compound, the composite z-score in experiment [8] was -0.266; in experiment [9] it was 2.17; in experiment [10], 1.08; in experiment [11] it was 0.0709; in experiment [12], 0.232; in [13], 0.755. For the same compound, the composite z-score in experiment [14] was 2.33; in [15] it was 0.937; in experiment [17], 0.281; in [18] it was -0.107; in experiment [19] it was 0.927; in [20], 1.8. In experiment [7], this compound had a z-score of -0.387. For the same compound, the composite Z-score in experiment [16] was inactive: 0.952.

As for `O=P(/N=C1/CC(c2ccc(CO)cc2)=CC(C2CC2)N1Cc1sc2ccccc2c1Cl)(Oc1ccccc1)Oc1ccccc1` (stereo not given), the composite z-score in experiment [1] amounted to 1.38; in [2] it was 1.1; in [3] it was 0.423; in experiment [4] it was 0.926; in [5] it was 0.659; in experiment [6] it was 1.11. The composite z-score in [8] is 0.646; in experiment [9] it was 1.11; in experiment [10], 0.809; in experiment [11] it was -0.0239; in experiment [12], 0.123; in [13], -0.103. Moreover, the composite z-score in [14] is 0.428; in experiment [15] it was 0.144; in experiment [17] it was -0.004; in experiment [18] it was -0.084; in experiment [19], 0.798; in [20], 1.73. In experiment [7], this compound had a z-score of -0.862. Further, the composite Z-score in experiment [16] was inactive: 0.392.

In the case of `CN1/C(=N\P(=O)(Oc2ccccc2)Oc2ccccc2)CC(CCCO)=CC1c1cccs1` (stereo not given), the composite z-score in experiment [1] came out at 0.432; in experiment [2], 0.403; in [3], 0.0352; in [4] it was 0.351; in [5], 0.025; in experiment [6], 1.07. Further, the composite z-score in [8] is 0.216; in [9] it was 0.834; in [10], 1.02; in [11] it was -0.0346; in experiment [12], 0.289; in [13], 0.644. Moreover, the composite z-score in experiment [14] was 1.64; in experiment [15], 0.993; in [17], 0.0665; in experiment [18], -0.0811; in experiment [19], 0.846; in [20], 1.54. Also, the z-score in experiment [7] is -0.609. The composite Z-score in experiment [16] is inactive: -0.305.

As for `COP(=O)(/N=C1/CC(CCCO)=CC(C2CC2)N1C)OC` (stereo not given), the composite z-score in experiment [1] is 0.539; in experiment [2], 0.586; in experiment [3], -0.294; in experiment [4], 0.419; in experiment [5], 1.23; in [6] it was 0.922. The composite z-score in experiment [8] is 0.275; in experiment [9] it was 1.59; in [10] it was 0.44; in [11] it was 0.121; in experiment [12], -0.214; in experiment [13], -0.226. Further, the composite z-score in experiment [14] was 0.325; in experiment [15], 0.43; in experiment [17] it was 0.0945; in [18], -0.164; in experiment [19], 0.16; in [20], 0.484. The compound also gave a z-score in experiment [7] of -0.456. The composite Z-score in experiment [16] was inactive: -0.21.

As for `COP(=O)(/N=C1/CC(c2ccc(CO)cc2)=CC(C2CC2)N1Cc1cc2c(cc1Br)OCO2)OC` (stereo not given), the composite z-score in [1] came out at 1.4; in [2], 0.619; in experiment [3], 0.0119; in [4] it was 0.692; in [5], 0.303; in experiment [6], 1.76. The composite z-score in [8] worked out at 0.455; in [9], 1.33; in experiment [10], 0.889; in experiment [11] it was 0.0516; in experiment [12] it was 0.564; in experiment [13], 1.25. Further, the composite z-score amounted to 1.92 in experiment [14]; 0.124 in experiment [15]; 0.26 in [17]; 0.114 in experiment [18]; 0.789 in [19]; 0.163 in experiment [20]. This compound returned a z-score in experiment [7] of -0.72. Moreover, in experiment [16], the composite Z-score was inactive: 1.11.

In the case of `COP(=O)(/N=C1/CC(CCCO)=CC(c2ccc(CN3CCCC3)cc2)N1C)OC` (stereo not given), the composite z-score in [1] was 0.657; in experiment [2], 0.265; in experiment [3] it was -0.668; in [4] it was 0.217; in experiment [5], 0.155; in experiment [6] it was 0.992. Moreover, the composite z-score in [8] is -0.351; in experiment [9], 1.34; in experiment [10] it was 0.954; in experiment [11], 0.149; in [12], -0.138; in experiment [13], 1.43. Moreover, the composite z-score came to 0.455 in [14]; 0.0723 in [15]; 0.032 in experiment [17]; 0.13 in experiment [18]; 0.714 in experiment [19]; 0.686 in experiment [20]. The z-score in experiment [7] stood at 0.0103. Moreover, in experiment [16], the composite Z-score is inactive: 0.0831.

Turning to `COP(=O)(/N=C1/CC(CCCO)=CC(C2CC2)N1Cc1sc2ccccc2c1Cl)OC` (stereo not given), the composite z-score in [1] came out at 1.36; in experiment [2] it was 0.838; in experiment [3] it was 0.36; in experiment [4] it was 1.1; in [5], 0.735; in experiment [6], 1.8. Also, the composite z-score in experiment [8] came to 0.389; in experiment [9], 2.23; in [10], 1.17; in experiment [11], 0.48; in experiment [12], 1.24; in experiment [13], 1.83. Also, the composite z-score in [14] worked out at 2.6; in experiment [15], 0.133; in experiment [17], 0.762; in experiment [18], 0.354; in experiment [19] it was 0.732; in experiment [20] it was 1.16. Besides, the z-score in [7] was -1.35. For the same compound, the composite Z-score in [16] is inactive: 0.295.

`COP(=O)(/N=C1/CC(CCCO)=CC(C2CC2)N1Cc1cccc(OC(F)(F)F)c1)OC` (stereo not given): the composite z-score is -0.274 in experiment [1]; -0.46 in [2]; -0.278 in [3]; -0.292 in experiment [4]; -0.391 in [5]; 1.67 in [6]. Also, the composite z-score in experiment [8] is -0.49; in experiment [9] it was 1.11; in [10], 1.2; in [11], -0.101; in experiment [12], 0.261; in [13], 0.669. Moreover, the composite z-score worked out at 1.98 in experiment [14]; 0.708 in experiment [15]; 0.186 in experiment [17]; 0.0175 in [18]; 0.541 in experiment [19]; 0.74 in [20]. The compound further gave a z-score in experiment [7] of -1.71. The composite Z-score in experiment [16] was inactive: 0.251.
